This note sets out measurements from patent publication US20250339461A1 (priority 2024, published 2025).

This experiment concerns migraine headache.

Take magnesium: where the note is “Example 2 patient, history”, the “benefit as prophylactic agent for migraines” value is “without benefit”. Also, the benefit for prophylaxis result (Example 5 patient, history) is recorded as “partially helpful”.

For magnesium oxide, the “effect on frequency of headaches after 4-6 weeks” value (Example 1 patient, riboflavin 200 mg bid, magnesium oxide 500 mg tid and coenzyme Q10 100 mg bid prescribed together) is given as “did not affect the frequency”.
